Data reported in US8969034B2, “Endoglycosidases that cleave O-linked glycans” (New England Biolabs, Inc., priority 2008, dated 2015).

Tests used:
[1] = target: Enterococcus faecalis endo-α-GalNAcase EngEF (NP_815498.1), SEQ ID NO:2 (Enterococcus faecalis, UniProt Q833X5); assay: Steady-state enzyme kinetics of EngEF; conditions: Core 1 substrate; 25° C.; average of three measurements
[2] = target: Propionibacterium acnes endo-α-GalNAcase EngPA (YP_056270.1), SEQ ID NO:3 (Cutibacterium acnes, UniProt A0ABM7H013); assay: Steady-state enzyme kinetics of EngPA; conditions: Core 1 substrate; 25° C.; average of three measurements

`CC(=O)N[C@H]1[C@@H](Oc2ccc([N+](=O)[O-])cc2)O[C@H](CO)[C@H](O)[C@@H]1O[C@@H]1O[C@H](CO)[C@H](O)[C@H](O)[C@H]1O` [Galβ1,3GalNAcα1ρNP] gave a kcat [1] of 51.17 s⁻¹ and a kcat [2] of 2.009 s⁻¹.
